Results: patent US20040266687A1, “Compositions and methods comprising protein activated receptor antagonists” (priority 2002, published 2004)

Assays:
PAR-1 = biological target: T1, PAR-1 (Homo sapiens, UniProt P25116); assay: Activation study with PAR-1 activation peptide SFLLRN on cells pretreated with antagonist; assay type: cell-based; conditions: cells pretreated with the substance
T1 construct: endogenous in cells; host or cells: HUVEC or HT29 colon carcinoma cells
T1 sequence (P25116 22-425): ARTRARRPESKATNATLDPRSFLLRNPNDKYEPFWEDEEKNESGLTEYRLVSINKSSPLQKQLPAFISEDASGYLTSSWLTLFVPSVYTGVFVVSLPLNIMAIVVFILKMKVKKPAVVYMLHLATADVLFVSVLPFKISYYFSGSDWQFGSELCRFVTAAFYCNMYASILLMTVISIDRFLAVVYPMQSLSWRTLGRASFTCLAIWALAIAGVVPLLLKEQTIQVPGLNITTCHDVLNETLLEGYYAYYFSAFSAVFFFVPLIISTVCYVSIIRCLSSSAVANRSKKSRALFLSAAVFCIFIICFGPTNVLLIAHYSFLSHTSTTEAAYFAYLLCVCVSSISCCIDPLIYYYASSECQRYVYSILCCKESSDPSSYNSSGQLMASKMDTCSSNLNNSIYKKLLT
Description: (§1) Confluent HUVECs or HT29 colon carcinoma cells were loaded for 30-60 minutes with the fluorescent dye Fluo-4. Final concentration 4 uM Fluo-4, 0.02% pluronic acid in physiological buffer. Cells were then washed with assay buffer, (HBSS containing 1 mM CaCl2, 1 mM MgSO4, and 2.5 mM probenecid). Cells were stimulated with various doses of PAR-2 activating peptide, PAR-1 activating peptide or ATP.
(§2) Fluorescence was monitored using a Wallac 1470 fluorescent plate reader. (See Al-ani et. al Journal of Pharmacology and Experimental Therapeutics 290:2, 753-760)
(§3) Both of these molecules signal through G-protein coupled receptors, and PAR-1 is very highly homologous to PAR-2, to the degree that the PAR-1 agonist peptide can signal through PAR-2 at high concentrations.

PAR-2 [1] = biological target: T2, PAR-2 (Mus musculus, UniProt P55086); assay: Edema model: footpad edema induced by PAR-2 agonist peptide; assay type: in vivo, mice; conditions: co-treatment in footpad, measured one hour later
T2 construct: C57bl/b mice had 5-25 μg of SLIGKV injected into their footpad; from tissue; host or cells: mouse footpad in vivo (C57bl mice)
T2 sequence (P55086 26-399): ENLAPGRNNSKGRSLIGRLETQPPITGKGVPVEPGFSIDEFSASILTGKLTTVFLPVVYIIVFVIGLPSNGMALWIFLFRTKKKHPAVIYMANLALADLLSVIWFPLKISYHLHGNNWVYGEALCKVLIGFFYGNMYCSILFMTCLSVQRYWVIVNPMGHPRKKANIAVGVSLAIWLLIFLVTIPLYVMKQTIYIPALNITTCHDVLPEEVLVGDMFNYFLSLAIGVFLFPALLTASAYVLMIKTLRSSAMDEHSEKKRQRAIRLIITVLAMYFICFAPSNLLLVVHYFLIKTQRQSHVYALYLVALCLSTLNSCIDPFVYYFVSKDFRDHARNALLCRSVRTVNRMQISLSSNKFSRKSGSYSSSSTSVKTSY
Description: C57bl/b mice had 5-25 μg of SLIGKV injected into their footpad, in the presence or absence of increasing amounts of various PAR-2 antagonists. One hour later, footpad (tarsus) thickness was measured to quantify inflammation (edema).
The inventors next assessed whether the LIGK peptide had in vivo PAR-2 antagonistic activity. This was studied using an edema model where vascular permeability was induced by the PAR-2 agonist peptide. In this model, the PAR-2 peptide induces severe edema as expected (FIG. 8). This vascular response was blocked by co-treatment with the PAR-2 antagonist LIGK (SEQ ID NO:1) (FIG. 9). Thus, LIGK (SEQ ID NO:1) functions in vivo to block PAR-2 signaling.

[2] = test system: ATP signaling (G-protein coupled receptors); assay: Activation study with ATP on cells pretreated with antagonist; assay type: cell-based; conditions: cells pretreated with the substance
Description: as §1, §2, §3

angiogenesis = assay: Matrigel angiogenesis model (hemoglobin content in the plug); assay type: in vivo, mice; conditions: highest dose, s.c. for 6 days, FGF-2 Matrigel
Description: Since TF/fVIIa inhibitors are also potent antiangiogenic agents, we tested the antiangiogenic activity of LIGK in the Matrigel angiogenesis model. In this assay Matrigel admixed with bFGF are implanted subcutaneously and treatments are initiated 24 h later. bFGF control plugs are highly vascularized and filled with blood filled vessels. […] At the highest dose of LIGK,. angiogenesis was inhibited by more than 80%.
C57/B16 mice were injected s.c. with Matrigel containing 0.5 μg FGF-2. Treatment was started at day 1 with LIGK administered s.c. for 6 days.

[3] = Arthrogen-CIA induced body weight loss in mice; assay type: in vivo; conditions: 200 mg/kg/day i.p. for 7 days, Balb/c mice
Description: (§4) On day 0, Balb/c mice were injected IV with the 1-2 mg 1B11 monoclonal anti-collagen II antibody. On day 1, animals were injected i.p with 20 ug LPS, and treatment with PAR-2 antagonists (200 mg/kg/day i.p). for 7 days is initiated. After treatment was completed, disease is quantified by measuring the thickness (swelling) in both feet of the mouse. This was compared to untreated mice This model results in significant weight loss associated with the administration of LPS. Treatment of these mice with LIGK abrogated this LPS induced weight loss.

[4] = Arthritis in mice (anti-collagen II antibody plus LPS), foot thickness; assay type: in vivo; conditions: 200 mg/kg/day i.p. for 7 days, Balb/c mice, FIG. 19
Description: as §4, with “1 -2” for “1-2”, “mice. (p<0.05 vs. vehicle control)” for “mice This model results in significant weight loss associated with the administration of LPS. Treatment of these mice with LIGK abrogated this LPS induced weight loss.”

PAR-2 [5] = biological target: T3, PAR-2 (Homo sapiens, UniProt P55085); assay: Inhibition of P2AP (SLIGKV)-stimulated PAR-2 signaling in cells pretreated with antagonist; assay type: cell-based
T3 construct: endogenous in cells; host or cells: HUVEC or HT29 colon carcinoma cells
T3 sequence (P55085 26-397): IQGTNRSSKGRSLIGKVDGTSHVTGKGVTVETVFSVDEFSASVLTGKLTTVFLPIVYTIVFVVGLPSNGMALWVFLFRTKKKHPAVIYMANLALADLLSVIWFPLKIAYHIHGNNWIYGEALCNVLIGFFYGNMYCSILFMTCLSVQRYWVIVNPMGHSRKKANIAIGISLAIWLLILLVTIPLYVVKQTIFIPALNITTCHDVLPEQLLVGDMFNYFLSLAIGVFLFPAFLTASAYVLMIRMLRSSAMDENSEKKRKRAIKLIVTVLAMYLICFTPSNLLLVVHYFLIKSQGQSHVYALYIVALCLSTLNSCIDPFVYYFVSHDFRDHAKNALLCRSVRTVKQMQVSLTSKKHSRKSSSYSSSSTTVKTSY
Description: as §1, §2
In order to assess the potential of peptides selected above to block PAR-2 signaling, cells were pretreated with potential antagonist peptides for a predetermined amount of time and were subsequently treated with P2AP. Methods and protocols used were the same as those described in Example 1.

LLC = assay: Antiproliferative effect on LLC in vitro; assay type: cell-based; conditions: data not shown
Lewis lung carcinoma = Lewis lung carcinoma (LLC) experimental metastatic model; assay type: in vivo, mice
Description: In this tumor growth model, treatments were initiated on day 3 post inoculation, after tumor cells had homed to the lung, and started growing. […] At a dose of 4 mg/day tumor growth was inhibited by 75%. […] C57/B16 mice were injected i.v. with Lewis lung carcinoma. 3 days later, treatment of lung tumors was started with i.p. LIGK (SEQ ID NO:1) for 11 days.

PAR-2 [6] = biological target: T3, PAR-2; assay: PAR signalling activity: calcium mobilization (Fluo-4) in response to peptides; assay type: cell-based; conditions: result in words, FIG. 4A-4C
Description: as §1, §2
Calcium mobilization curves of the PAR-2 agonist SLIGKV (SEQ ID NO:25) compared with two truncated molecules LIGK (SEQ ID NO:1) and LIGKV (SEQ ID NO:2) are provided in FIG. 4A. […] Similar studies were performed on alanine substituted SLIGKV (SEQ ID NO:25) peptides (FIGS. 4B and 4C).

LLC primary tumor = LLC primary tumor model; assay type: in vivo, mice; conditions: 1 mg/day, treatment initiated when tumor volume approaches 100 mm^3
Description: Similar experiments were performed in the LLC primary tumor model. In this model, treatment is initiated when tumor volume approaches 100 mm^3. […] At 1 mg/day, tumor growth was inhibited by 62%. Similar experiments were performed in the LLC primary tumor model. In this model, treatment is initiated when tumor volume approaches 100 mm^3. […] At 1 mg/day, tumor growth was inhibited by 62%.

inhibitory effect on signaling by PAR-1 (activation peptide SFLLRN) (PAR-1): no inhibitory effect
vascular response (edema) induced by PAR-2 agonist peptide (PAR-2 [1]): blocked
blocking of SLIGKV signaling (PAR-2 [5]; 1 mM antagonist versus 100 uM SLIGKV, FIG. 5): completely blocked
IC50 (PAR-2 [5]; FIG. 6): < 500 µM
antagonist activity on PAR-2 signaling (PAR-2 [5]; result in words, cells pretreated with the substance, then P2AP): demonstrated antagonist activity
approximate IC50, metastatic tumor growth (Lewis lung carcinoma; across multiple independent studies, FIG. 11): ~2 mg/day
Compound: CC[C@H](C)[C@H](NC(=O)[C@@H](N)CC(C)C)C(=O)NCC(=O)N[C@@H](CCCCN)C(=O)O [LIGK]
inhibitory effect on signaling by ATP [2]: no inhibitory effect
angiogenesis inhibited (hemoglobin content in the plug) (angiogenesis): more than 80%
LPS induced weight loss [3]: abrogated
inflammation (arthritis, foot swelling) [4]: inhibited inflammation
antiproliferative effect on LLC in vitro (LLC): no antiproliferative effect
metastatic tumor growth inhibited (Lewis lung carcinoma; 4 mg/day i.p., treatment from day 3 for 11 days): 75%
calcium mobilization / signaling activity (PAR-2 [6]): Neither truncated molecule was able to induce calcium mobilization
primary tumor growth inhibited (LLC primary tumor): 62%
